# Source: article PMC4401096 (Scientific Reports, 2015)
# Target: T1, UGT1A3 (Homo sapiens, UniProt P35503)
# T1 sequence (P35503 29-534): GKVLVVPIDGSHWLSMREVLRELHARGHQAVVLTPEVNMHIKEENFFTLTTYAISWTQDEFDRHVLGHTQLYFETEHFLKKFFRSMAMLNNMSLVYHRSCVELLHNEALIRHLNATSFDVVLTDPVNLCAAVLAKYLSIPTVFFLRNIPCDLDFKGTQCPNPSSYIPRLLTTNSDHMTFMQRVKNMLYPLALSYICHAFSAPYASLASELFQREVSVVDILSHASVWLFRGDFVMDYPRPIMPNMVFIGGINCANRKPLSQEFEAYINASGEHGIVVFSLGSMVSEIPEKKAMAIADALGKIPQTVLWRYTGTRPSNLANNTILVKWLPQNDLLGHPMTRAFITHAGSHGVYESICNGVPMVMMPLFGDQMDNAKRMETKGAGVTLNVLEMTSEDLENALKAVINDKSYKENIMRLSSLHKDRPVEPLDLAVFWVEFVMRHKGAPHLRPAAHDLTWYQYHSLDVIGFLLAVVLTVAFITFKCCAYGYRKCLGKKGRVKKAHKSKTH
# Settings: HLMs, substrate concentration 60 μM; phenylbutazone 500 μM, glycyrrhetinic acid 50 μM, β-estradiol 100 μM
compound,measurement,value
CCCCC1C(=O)N(c2ccccc2)N(c2ccccc2)C1=O [phenylbutazone],inhibition of the formation of M-2 (16-O-glucuronate),significantly inhibited
